Sequences of proteins named here, by UniProt entry; tags and fusion partners are left off.
UniProt O43614, whole entry: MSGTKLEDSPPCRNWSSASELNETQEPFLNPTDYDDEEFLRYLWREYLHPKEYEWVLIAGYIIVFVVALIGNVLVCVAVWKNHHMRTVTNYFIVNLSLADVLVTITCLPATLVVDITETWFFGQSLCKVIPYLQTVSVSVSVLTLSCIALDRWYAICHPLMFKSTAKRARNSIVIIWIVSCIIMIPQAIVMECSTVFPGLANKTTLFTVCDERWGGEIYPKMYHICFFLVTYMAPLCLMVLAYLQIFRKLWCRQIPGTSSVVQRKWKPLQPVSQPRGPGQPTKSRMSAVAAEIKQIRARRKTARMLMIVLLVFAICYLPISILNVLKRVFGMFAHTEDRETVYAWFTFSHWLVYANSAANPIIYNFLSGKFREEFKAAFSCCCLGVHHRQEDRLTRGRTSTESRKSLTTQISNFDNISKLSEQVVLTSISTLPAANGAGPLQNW

One assay deals with T1, OX2 (Homo sapiens, UniProt O43614).
T1 construct: expressed in transfected cells; host or cells: CHO (CHO-OX2, kept under selection antibiotic)
The experiment in a line: Orexin receptor cell-based functional assay, [Ca2+]i by FLIPR, CHO-OX2 cells. The settings on record: CHO-OX2 cells, [Ca2+]i by FLIPR, antagonist dose-range 0.1 nM-10 μM, EC90 of OXA; read-out: OX2.
On to `C[C@@H]1CCCN(C(=O)c2cc(F)c(F)cc2-c2ncccn2)[C@@H]1CNc1ncc(C(F)(F)F)cn1` [Example A243, (4,5-Difluoro-2-(pyrimidin-2-yl)phenyl)((2S,3R)-3-methyl-2-(((5-(trifluoromethyl)pyrimidin-2-yl)amino)methyl)piperidin-1-yl)methanone], for which the IC50 was > 5000 nM.

On to `Cc1ccc(-n2nccn2)c(C(=O)N2CCC[C@@H](C)[C@H]2CNc2ncc(F)cn2)c1` [Example A171, ((2S,3R)-2-(((5-Fluoropyrimidin-2-yl)amino)methyl)-3-methylpiperidin-1-yl)(5-methyl-2-(2H-1,2,3-triazol-2-yl)phenyl)methanone], for which the IC50 was > 5000 nM.

Turning to `C[C@@H]1CCCN(C(=O)c2c(F)cccc2-n2nccn2)[C@@H]1CNc1ncc(C(F)(F)F)cn1` [Example A259, (2-Fluoro-6-(2H-1,2,3-triazol-2-yl)phenyl)((2S,3R)-3-methyl-2-(((5-(trifluoromethyl)pyrimidin-2-yl)amino)methyl)piperidin-1-yl)methanone], the IC50 was > 5000 nM.

For the compound `C[C@@H]1CCCN(C(=O)c2cc(F)ccc2-c2ncccn2)[C@@H]1CNc1ccc(Cl)cn1` [Example A229, ((2S,3R)-2-(((5-Chloropyridin-2-yl)amino)methyl)-3-methylpiperidin-1-yl)(5-fluoro-2-(pyrimidin-2-yl)phenyl)methanone], the IC50 is > 5000 nM.

In the case of `COc1ncc(-c2ccc(C)cc2C(=O)N2CCC[C@@H](C)[C@H]2CNc2ccc(C(F)(F)F)cn2)cn1` [Example A4, (2-(2-Methoxypyrimidin-5-yl)-5-methylphenyl)((2S,3R)-3-methyl-2-(((5-(trifluoromethyl)pyridin-2-yl)amino)methyl)piperidin-1-yl)methanone], the IC50 is > 4000 nM.

In the case of `C[C@@H]1CCCN(C(=O)c2ccc(F)cc2-n2nccn2)[C@@H]1CNc1ccc(C(F)(F)F)cn1` [Example A250, (4-Fluoro-2-(2H-1,2,3-triazol-2-yl)phenyl)((2S,3R)-3-methyl-2-(((5-(trifluoromethyl)pyridin-2-yl)amino)methyl)piperidin-1-yl)methanone], the IC50 was > 5000 nM.

For `Cc1nc(C(=O)N2CCC[C@H](C)[C@H]2CNc2ccc(C(F)(F)F)cn2)c(-c2ccc(F)cc2)s1` (racemic) [Example A65, rac-trans-(5-(4-Fluorophenyl)-2-methylthiazol-4-yl)(3-methyl-2-(((5-(trifluoromethyl)pyridin-2-yl)amino)methyl)piperidin-1-yl)methanone], the IC50 is 38 nM.

Take `Cc1ccc(-n2ccc(C)n2)c(C(=O)N2CCC[C@@H](C)[C@H]2CNc2nc3cc(Cl)ccc3o2)c1` [Example A115, ((2S,3R)-2-(((5-Chlorobenzo[d]oxazol-2-yl)amino)methyl)-3-methylpiperidin-1-yl)(5-methyl-2-(3-methyl-1H-pyrazol-1-yl)phenyl)methanone]: the IC50 is > 4000 nM.

For `Cc1ccc(C(=O)N2CCC[C@@H](C)[C@H]2CNc2ncc(C(F)(F)F)cn2)c(-n2nccn2)c1` [Example A272, ((2S,3R)-3-Methyl-2-(((5-(trifluoromethyl)pyrimidin-2-yl)amino)methyl)piperidin-1-yl)(4-methyl-2-(2H-1,2,3-triazol-2-yl)phenyl)methanone], the IC50 was determined as 8500 nM.

Turning to `C[C@@H]1CCCN(C(=O)c2cc(Cl)ccc2-n2nccn2)[C@@H]1CNc1ccc(Cl)cn1` [Example A161], the IC50 was > 5000 nM.

As for `C[C@@H]1CCCN(C(=O)c2cc(F)ccc2-n2nccn2)[C@@H]1CNc1ncc(C(F)(F)F)cn1` [Example A207, (5-Fluoro-2-(2H-1,2,3-triazol-2-yl)phenyl)((2S,3R)-3-methyl-2-(((5-(trifluoromethyl)pyrimidin-2-yl)amino)methyl)piperidin-1-yl)methanone], the IC50 is > 5000 nM.

`C[C@@H]1CCCN(C(=O)c2cccc(F)c2-n2nccn2)[C@@H]1CNc1ccc(C(F)(F)F)cn1` [Example A257, (3-Fluoro-2-(2H-1,2,3-triazol-2-yl)phenyl)((2S,3R)-3-methyl-2-(((5-(trifluoromethyl)pyridin-2-yl)amino)methyl)piperidin-1-yl)methanone]: the IC50 is > 5000 nM.

Take `Cc1ccc(-n2nccn2)c(C(=O)N2CCC[C@@H](C)[C@H]2CNc2nc3ccccc3o2)c1` [Example A180, ((2S,3R)-2-((Benzo[d]oxazol-2-ylamino)methyl)-3-methylpiperidin-1-yl)(5-methyl-2-(2H-1,2,3-triazol-2-yl)phenyl)methanone]: the IC50 worked out at 160 nM.

In the case of `Cc1ccc(-n2ccc(C)n2)c(C(=O)N2CCC[C@@H](C)[C@H]2CNc2ccc(C#N)cn2)c1` [Example A133, 6-((((2S,3R)-3-Methyl-1-(5-methyl-2-(3-methyl-1H-pyrazol-1-yl)benzoyl)piperidin-2-yl)methyl)amino)nicotinonitrile], the IC50 was > 5000 nM.

Turning to `C[C@@H]1CCCN(C(=O)c2cc(Cl)ccc2-c2ncccn2)[C@@H]1CNc1ncc(Cl)cn1` [Example A202, (5-Chloro-2-(pyrimidin-2-yl)phenyl)((2S,3R)-2-(((5-chloropyrimidin-2-yl)amino)methyl)-3-methylpiperidin-1-yl)methanone], the IC50 was > 5000 nM.

Take `Cc1ccc(-n2ccc(C)n2)c(C(=O)N2CCC[C@@H](C)[C@H]2CNc2nnc(C(F)(F)F)s2)c1` [Example A132, ((2S,3R)-3-Methyl-2-(((5-(trifluoromethyl)-1,3,4-thiadiazol-2-yl)amino)methyl)piperidin-1-yl)(5-methyl-2-(3-methyl-1H-pyrazol-1-yl)phenyl)methanone]: the IC50 is > 5000 nM.

In the case of `Cc1ccc(-n2ccc(C)n2)c(C(=O)N2CCC[C@@H](C)[C@H]2CNc2ccc(C(F)(F)F)cn2)c1` [Example A108, ((2S,3R)-3-Methyl-2-(((5-(trifluoromethyl)pyridin-2-yl)amino)methyl)piperidin-1-yl)(5-methyl-2-(3-methyl-1H-pyrazol-1-yl)phenyl)methanone], the IC50 came out at 1800 nM.

As to `Cc1nc(C(=O)N2CCC[C@@H](C)[C@H]2CNc2nc3cc(Cl)ccc3o2)c(-c2ccc(F)cc2)s1` [Example A13, ((2S,3R)-2-(((5-Chlorobenzo[d]oxazol-2-yl)amino)methyl)-3-methylpiperidin-1-yl)(5-(4-fluorophenyl)-2-methylthiazol-4-yl)methanone], the IC50 is > 4000 nM.

As to `C[C@@H]1CCCN(C(=O)c2cc(F)c(F)cc2-n2nccn2)[C@@H]1CNc1ncc(C(F)(F)F)cn1` [Example A248, (4,5-Difluoro-2-(2H-1,2,3-triazol-2-yl)phenyl)((2S,3R)-3-methyl-2-(((5-(trifluoromethyl)pyrimidin-2-yl)amino)methyl)piperidin-1-yl)methanone], the IC50 was > 5000 nM.

Staying with this assay, now noted: Table 2; CHO-OX2 cells, EC90 of OXA; read-out: IC50 Bioactivity OX2.
With `NC1CCC(CNC(=O)c2cccc3cccnc23)N(C(=O)c2ccccc2-c2ccccc2)C1` (racemic) [Example 39, N-((5-Amino-1-(biphenylcarbonyl)piperidin-2-yl)methyl)quinoline-8-carboxamide], the IC50 worked out at 160 nM.

Take `Cc1ccc(-c2ccc(C)nc2)c(C(=O)N2CCC[C@@H](C)[C@H]2CNc2ccc(C(F)(F)F)cn2)c1` (racemic) [Example 105, rac-cis-(3-Methyl-2-(((5-(trifluoromethyl)pyridin-2-yl)amino)methyl)piperidin-1-yl)(5-methyl-2-(6-methylpyridin-3-yl)phenyl)methanone]: the IC50 stood at 1600 nM.

`Cc1nc(C(=O)N2CCC[C@@H](C)[C@H]2COc2nc3ccccc3o2)c(-c2ccc(F)cc2)s1` (racemic) [Example 80, rac-cis-(2-((Benzo[d]oxazol-2-yloxy)methyl)-3-methylpiperidin-1-yl)(5-(4-fluorophenyl)-2-methylthiazol-4-yl)methanone]: the IC50 was > 10000 nM.

Consider `Cc1nc(-c2ccccc2)c(C(=O)N2CCC(F)(F)[C@H]2CNC(=O)c2cccc3cccnc23)s1` [Example 133, (R)—N-((3,3-Difluoro-1-(2-methyl-4-phenylthiazole-5-carbonyl)pyrrolidin-2-yl)methyl)quinoline-8-carboxamide], for which the IC50 was 1400 nM.

On to `Cc1nc(-c2ccccc2)c(C(=O)N2CC[C@@H](O)C[C@H]2CNC(=O)c2cccc3cccnc23)s1` [Example 134, N-(((2S,4R)-4-Hydroxy-1-(2-methyl-4-phenylthiazole-5-carbonyl)piperidin-2-yl)methyl)quinoline-8-carboxamide], for which the IC50 is > 10000 nM.

Consider `O=C(NC[C@@H]1C[C@H](F)CN1C(=O)c1ccccc1-c1ccccc1)c1cccc2cccnc12` [Example 5, N-(((2S,4S)-1-(Biphenylcarbonyl)-4-fluoropyrrolidin-2-yl)methyl)quinoline-8-carboxamide], for which the IC50 worked out at 40 nM.

For the compound `O=C(NC[C@@H]1C[C@H](O)CN1C(=O)c1ccccc1-c1ccccc1)c1cccc2cccnc12` [Example 126, N-(((2S,4S)-1-([1,1′-Biphenyl]-2-carbonyl)-4-hydroxypyrrolidin-2-yl)methyl)quinoline-8-carboxamide], the IC50 was found to be 8 nM.

As for `Cc1nc(C(=O)N2CCC[C@@H](C)[C@H]2CNc2ccc(Cl)cn2)c(-c2ccc(F)cc2)s1` (racemic) [Example 18, rac-cis-(2-(((5-Chloropyridin-2-yl)amino)methyl)-3-methylpiperidin-1-yl)(5-(4-fluorophenyl)-2-methylthiazol-4-yl)methanone], the IC50 worked out at 1500 nM.

For `Cc1nc(C(=O)N2CC(NCCO)CCC2CNC(=O)c2cccc3cccnc23)c(-c2cccc(F)c2)s1` (racemic) [Example 54, N-((1-(5-(3-Fluorophenyl)-2-methylthiazole-4-carbonyl)-5-(2-hydroxyethylamino)piperidin-2-yl)methyl)quinoline-8-carboxamide], the IC50 came out at 1200 nM.

Regarding `CO[C@@H]1CCCN(C(=O)c2nc(C)sc2-c2ccc(F)cc2)[C@@H]1CNc1ccc(C(F)(F)F)cn1` (racemic) [Example 92, rac-cis-(3-Methoxy-2-(((5-(trifluoromethyl)pyridin-2-yl)amino)methyl)piperidin-1-yl) (5-(4-fluorophenyl)-2-methylthiazol-4-yl)methanone], the IC50 was > 4000 nM.

(Values after US9440982B2 (Eolas Therapeutics, Inc., priority 2012, dated 2016).)
